Test results from US10953028B2, “Method of treating heterotopic ossification” (THE REGENTS OF THE UNIVERSITY OF MICHIGAN, priority 2015, dated 2021).

Legend:
[1] = tested on: cells derived from the tenotomy site 3 weeks after injury (3WLST); assay: Transcript levels (qPCR) in cells from the tenotomy site 3 weeks after injury (3WLST) in hypoxia; conditions: PX-478; hypoxic conditions
[2] = tested on: caACVR1fl/fl mice injected with cardiotoxin and Ad.cre
[3] = PX-478, after Ad.cre/cardiotoxin induction

## N[C@@H](Cc1ccc([N+]([O-])(CCCl)CCCl)cc1)C(=O)O
[1]
  Acan transcript level: diminished levels
  Hif1α transcript level: diminished levels
  Sox9 transcript level: diminished levels
[2]; PX-478 100 mg/kg i.p. every other day, day 22 after induction, control 18.1 mm^3
  total HO volume: 0.01 mm^3
[2]; PX-478 100 mg/kg i.p., control = 1.0
  total HO normalized volume: 0.0
[2]; [3]
  Hif1α and Sox9 based on immunostaining: elimination
  cartilage or bone based on pentachrome staining: near elimination
